{
  "source": "patent US20060134102A1",
  "about": "“Lymphotoxin beta receptor agents in combination with chemotherapeutic agents” (Biogen Idec MA Inc., priority 2002, published 2006)",
  "tested_on": "WiDr human colorectal adenocarcinoma",
  "test": "WiDr xenograft model: growth of established WiDr human colorectal tumors in athymic nude mice (tumor volume/weight, % T/C, Fa, Combination Index)",
  "settings": "day 35",
  "data": [
    {"smiles": "COc1cccc2c1C(=O)c1c(O)c3c(c(O)c1C2=O)C[C@@](O)(C(=O)CO)C[C@@H]3O[C@H]1C[C@H](N)[C@H](O)[C@H](C)O1", "note": "[Adriamycin, adriamycin]", "values": [
      {"measurement": "Tumor volume, individual animals", "setting": "Adriamycin 4 mg/kg", "result": 1087.2},
      {"measurement": "Tumor volume, individual animals", "setting": "Adriamycin 6 mg/kg", "result": 1017.1}
    ]}
  ]
}
